The values below come from PMC6208443 (2018).

For test [1], the target named is T1, AtAGDP1 AGD34 (residues 198–364) (Arabidopsis thaliana, UniProt Q500V5 198-364).
T1 chain: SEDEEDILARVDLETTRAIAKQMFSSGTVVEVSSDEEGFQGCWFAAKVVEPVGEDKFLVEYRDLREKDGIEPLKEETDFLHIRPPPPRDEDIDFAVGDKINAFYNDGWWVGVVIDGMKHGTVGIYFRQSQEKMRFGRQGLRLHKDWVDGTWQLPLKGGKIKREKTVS
The test can be described thus: ITC.

In test [2] the target is T2, AtAGDP1 AGD56 (residues 375–517) (Arabidopsis thaliana, UniProt Q500V5 375-517).
T2 chain: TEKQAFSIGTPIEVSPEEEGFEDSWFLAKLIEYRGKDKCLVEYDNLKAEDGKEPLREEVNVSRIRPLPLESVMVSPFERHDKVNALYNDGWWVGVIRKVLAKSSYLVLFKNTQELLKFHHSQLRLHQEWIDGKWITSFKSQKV
The test can be described thus: ITC.

B1: H3K9me1 peptide (ITC) (peptide)
chain: ARTKQTARKSTGGKA
modifications: monomethyl-lysine at K9
With B1, the Kd stood at 27.8 µM in test [1] and 12.1 µM in test [2].

B2: H3K9me2 peptide (ITC) (peptide)
chain: ARTKQTARKSTGGKA
modifications: dimethyl-lysine at K9
B2: the Kd in test [1] was determined as 13.4 µM; in test [2], 6.25 µM.
